Laboratory results published in patent US5066783A, “Antiviral peptides and means for treating herpes infections” (priority 1988, dated 1991).

Chains of the proteins cited; added tags and fusions are not shown. Lines headed by an entry give the natural chain unless they say otherwise; changes in a name come on top.
UniProt P08543: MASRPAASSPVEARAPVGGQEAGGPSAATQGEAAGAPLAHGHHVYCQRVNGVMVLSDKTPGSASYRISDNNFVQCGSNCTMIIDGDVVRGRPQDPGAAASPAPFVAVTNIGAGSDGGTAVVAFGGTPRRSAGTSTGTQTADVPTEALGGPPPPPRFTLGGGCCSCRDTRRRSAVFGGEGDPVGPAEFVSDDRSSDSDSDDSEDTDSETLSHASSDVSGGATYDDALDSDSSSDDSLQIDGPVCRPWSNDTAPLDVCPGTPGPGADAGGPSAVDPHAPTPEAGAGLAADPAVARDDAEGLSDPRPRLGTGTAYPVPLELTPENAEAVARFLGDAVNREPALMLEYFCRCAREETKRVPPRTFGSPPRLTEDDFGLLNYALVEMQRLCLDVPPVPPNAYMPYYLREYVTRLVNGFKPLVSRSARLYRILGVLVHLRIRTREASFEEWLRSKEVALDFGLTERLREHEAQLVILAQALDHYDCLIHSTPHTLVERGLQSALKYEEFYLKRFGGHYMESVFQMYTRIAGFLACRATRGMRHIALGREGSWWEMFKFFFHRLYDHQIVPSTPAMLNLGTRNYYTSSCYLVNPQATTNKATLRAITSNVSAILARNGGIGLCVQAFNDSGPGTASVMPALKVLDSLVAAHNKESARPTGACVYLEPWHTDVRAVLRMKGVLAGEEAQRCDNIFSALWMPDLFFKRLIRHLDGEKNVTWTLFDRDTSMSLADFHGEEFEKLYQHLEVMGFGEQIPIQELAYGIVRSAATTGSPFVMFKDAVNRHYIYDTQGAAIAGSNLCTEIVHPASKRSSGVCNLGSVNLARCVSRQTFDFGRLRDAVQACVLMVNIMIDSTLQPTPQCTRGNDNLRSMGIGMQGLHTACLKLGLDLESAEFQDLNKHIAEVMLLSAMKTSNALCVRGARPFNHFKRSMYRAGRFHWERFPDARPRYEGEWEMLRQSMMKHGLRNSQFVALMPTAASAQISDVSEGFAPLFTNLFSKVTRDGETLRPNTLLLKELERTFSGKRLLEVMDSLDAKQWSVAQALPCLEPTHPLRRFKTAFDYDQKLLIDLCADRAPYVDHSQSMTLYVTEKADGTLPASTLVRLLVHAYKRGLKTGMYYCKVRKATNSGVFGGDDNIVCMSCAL

Experiments:
[1] = biological target: T1, herpes simplex viral ribonucleotide reductase (Human herpesvirus 1, UniProt P08543); format: biochemical, herpes simplex virus; conditions: read-out: IC50 (concentration producing 50% of the maximal inhibition of enzyme activity)
T1 construct: endogenous in cells

[2] = biological target: ribonucleotide reductase from HSV-1 (strain F)-infected BHK-21/C13 cells (Human herpesvirus 1, UniProt P08543); experiment: HSV-1 ribonucleotide reductase (CDP reductase) inhibition

SMILES	IC50 [1]	IC50 [2]
CC(C)C[C@H](NC(=O)[C@H](CC(=O)O)NC(=O)[C@H](CC(N)=O)NC(=O)[C@@H](NC(=O)[C@@H](NC(=O)[C@H](C)NC(=O)CNC(=O)[C@@H](C)NC(=O)[C@@H](N)Cc1ccc(O)cc1)C(C)C)C(C)C)C(=O)O [H--Tyr--D--Ala--Gly--Ala--Val--Val--Asn--Asp--Leu--OH]	200 µM	–
CC(C)C[C@H](NC(=O)[C@H](CC(=O)O)NC(=O)[C@H](CC(N)=O)NC(=O)[C@@H](NC(=O)[C@@H](NC(=O)[C@H](C)NC(=O)CNC(=O)[C@H](C)NC(=O)[C@@H](N)Cc1ccc(O)cc1)C(C)C)C(C)C)C(=O)O [HSV 7-15, L-tyrosyl-L-alanyl-glycyl-L-alanyl-L-valyl-L-valyl-L-asparagyl-L-aspartyl- L-leucine]	–	22 µM
CC(C)C[C@H](NC(=O)[C@H](CC(=O)O)NC(=O)[C@H](CC(N)=O)NC(=O)[C@@H](NC(=O)[C@@H](NC(=O)[C@H](C)NC(=O)CNC(=O)[C@H](C)NC(=O)[C@H](N)Cc1ccc(O)cc1)C(C)C)C(C)C)C(=O)O [H--D--Tyr--Ala--Gly--Ala--Val--Val--Asn--Asp--Leu--OH]	200 µM	–
